Assay: PN and peptide size (volume, diameter) by FPLC gel filtration (Superdex 200, globular protein standards)
Assay type: physicochemical
Settings: Table 5; globular protein equivalent molecular weight
Method: DOTA-Lys-Cys(IR783)-NH2 is then dissolved in DMSO, with 2 equivalents of an NHS ester of PEG and 6 equivalents of DIPEA. The reaction was at room temperature for 5 days. Product was purified by reverse phase HPLC separation. Product molecular weight was by matrix-assisted laser desorption ionization time-of-flight mass spectrometry (MALDI-TOF MS), with product molecular volume by size exclusion FPLC using globular protein standards (GE Healthcare life science AKTApurifier 10).
The mass spec of low molecular weights (MW) were obtained by MS-ESI Micromass (Waters) and high MW molecules were determined through MALDI-TOF analyses at the Tufts University Core Facility. […] Probe size (volume) was determined by FPLC using an ÄKTA Purifier 10 and Superdex™ 200 10/300GL column (GE Healthcare) with a running buffer of 0.05 M sodium phosphate, 0.15 M NaCl (0.1% Tween, pH 7.2) and flow rate of 0.8 ml/min. […]
The column was calibrated with globular protein standards, and globular protein equivalent molecular weights (in kDa) were obtained (Table 5, column 5). […] Using PEG's of 5 kDa and 30 kDa, selected for their low polydispersity, PN's were synthesized using IR-783, Cy3 and Fluorescein (see FIG. 22a) and their sizes determined (see FIGS. 23a, 23b, 23c). […] For reference, the diameter of a 67 kDa albumin determined by this method was 5.4 nm.

With “(DOTA)Lys-Cys(Fluorescein) [(DOTA)Lys-Cys(FI)]” the “Volume FPLC” value was 0.6 kDa.

Source: patent publication US20150258217A1, “Methods of Synthesizing and Using Peg-Like Fluorochromes” (THE GENERAL HOSPITAL CORPORATION, priority 2012, published 2015)
